In patent publication US7833698B2, “Method for determining the response to cancer therapy” (Ventana Medical Systems, Inc., priority 2000, dated 2010):

System: patient tumor tissue (metastatic disease)
Test: SA-β-Gal quantitation in patient tumor sections after Herceptin treatment (image analysis)
Format: in vivo, human
Experimental: Cells were washed in PBS, fixed for 3-5 minutes at room temperature in 2% formaldehyde and 0.2% glutaraldehyde (or in 3% formaldehyde alone), washed, and incubated at 37° C. in fresh senescence-associated β-Gal (SA-β-Gal) staining solution (1 mg/ml 5-bromo-4-chloro-3-indolyl β-D-galactoside (X-Gal), 20 mg/ml dimethylformamide; 40 mM citric acid/sodium phosphate, pH 6.0; 5 mM potassium ferrocyanide; 5 mM potassium ferricyanide; 150 mM NaCl; 2 mM MgCl2. Staining was evident following 2-4 hours of incubation and maximal staining was reached after in 12-16 hours. To detect lysosomal β-Gal, the staining solution was prepared with citric acid/sodium phosphate at pH 4.0 (Baselga et al., 1999, Proceedings of AACR NCI EORTC International Conference, Abstract 98).
Red and green filters are suitable for practice of the invention. For SA-β-Gal, a green filter (500 nm) is used to determine the total cytoplasmic area stained with red eosin and compared with the blue area stained for SA-β-Gal (600 nm) as determined using a red filter. […] It is recognized that there are various other staining or optical enhancement methods and filtering methods which can be used to optically enhance one particular area or feature over another cell feature (such as Fast green and eosin).
Frozen tumor sections were fixed and then stained for SA-β-Gal expression. SA-β-Gal^+ cells were quantitated using bright-field microscopy and image analysis. Tissues were obtained from a patient receiving only Herceptin™. The first needle biopsy was obtained from the metastatic disease before initiation of Herceptin™ therapy. On day 1 the patient received 4 mg/1 g.v Herceptin™ for 10 minutes. A second biopsy was taken on day 2, 24 hours after the patient received a second Herceptin™ treatment. A third biopsy was taken on day 14, 24 hours after the patient received a third dose of Herceptin™.

Substance: Herceptin: a monoclonal antibody to the oncogenic receptor HER-2/neu
- Percentage of Cells Expressing SA-β-Gal in Patient Tissue After Herceptin Treatment (Day 2 biopsy, 24 hours after second Herceptin treatment): 1.5%
- Percentage of Cells Expressing SA-β-Gal in Patient Tissue After Herceptin Treatment (Day 14 biopsy, 24 hours after third dose of Herceptin): 26%
- Cellular outcome of Herceptin treatment (SA-β-Gal+ cells having the morphological features of senescence): resulted in senescence and blocks at G1, G2, and G2M
